We go through one molecule from US20160345895A1.

This is a selection: effects in other tests are not listed, and their absence says nothing.

The nature of this data set: Arterial remifentanil blood concentrations by LC-MS/MS. The settings on record: the subject with hyperalgesia, target 1.8 ng/ml.

Regarding `CCC(=O)N(c1ccccc1)C1(C(=O)OC)CCN(CCC(=O)OC)CC1`, the Steady-state blood concentration came to 2.1 ng/mL.
